Assay [1] is filed under the species Homo sapiens. The experiment in a line: Selectivity ratio of Ki for human recombinant adenosine A3 receptor to Ki for human recombinant adenosine A2A receptor.
For assay [2], the species on record is Homo sapiens. The experiment in a line: Selectivity ratio of Ki for human recombinant adenosine A2B receptor to Ki for human recombinant adenosine A2A receptor.

For `Cn1c(-c2ccco2)nc2c(N)ncnc21`, the Ratio Ki in the assay listed under Homo sapiens [1] was 856; in the assay filed under Homo sapiens [2] it was 105.

The record behind these values is ChEMBL document CHEMBL3085675, “8-(2-Furyl)adenine derivatives as A₂A adenosine receptor ligands” (Eur J Med Chem, 2013).
